Molecular target: T1, HCV NS3/4A protease complex (BMS strain) (UniProt P27958)
T1 construct: for H77 and J4L6S; fused on or other part: Probably a three-lysine solubilising tail at the C-terminus of NS4A and a His tag from pET21b (Ni-NTA purification); These are printed for the H77 and J4L6S constructs and only inferred for BMS
Test: Recombinant HCV NS3/4A protease complex FRET peptide assay (BMS strain)
Type: biochemical, Hepatitis C virus (genotype 1a
Settings: read-out: IC50 (uuM); NS3/4A BMS strain; activity range class
Text: Serum from an HCV-infected patient was obtained from Dr. T. Wright, San Francisco Hospital. An engineered full-length cDNA (compliment deoxyribonucleic acid) template of the HCV genome (BMS strain) was constructed from DNA fragments obtained by reverse transcription-PCR (RT-PCR) of serum RNA (ribonucleic acid) and using primers selected on the basis of homology between other genotype 1a strains.
The H77 and J4L6S strains were used for production of recombinant NS3/4A protease complexes. […] Briefly, a three-lysine solubilizing tail was added at the 3′-end of the NS4A coding region. […] Briefly, the NS3/4A protease complex expression was induced with 0.5 millimolar (mM) Isopropyl β-D-1-thiogalactopyranoside (IPTG) for 22 hours (h) at 20° C. […] The cells were resuspended in lysis buffer (10 mL/g) consisting of 25 mM N-(2-Hydroxyethyl)Piperazine-N′-(2-Ethane Sulfonic acid) (HEPES), pH 7.5, 20% glycerol, 500 mM Sodium Chloride (NaCl), 0.5% Triton X-100, 1 microgram/milliliter (“μg/mL”) lysozyme, 5 mM Magnesium Chloride (MgCl2), 1 gg/ml DnaseI, 5 mM β-Mercaptoethanol (βME), Protease inhibitor—Ethylenediamine Tetraacetic acid (EDTA) free (Roche), homogenized and incubated for 20 minutes (min) at 4° C. The homogenate was sonicated and clarified by ultra-centrifugation at 235000 g for 1 h at 4° C. […]

Amino acid sequences for entries named in this document (tags omitted). Residues count along the entry.
UniProt P27958, 1027-1657: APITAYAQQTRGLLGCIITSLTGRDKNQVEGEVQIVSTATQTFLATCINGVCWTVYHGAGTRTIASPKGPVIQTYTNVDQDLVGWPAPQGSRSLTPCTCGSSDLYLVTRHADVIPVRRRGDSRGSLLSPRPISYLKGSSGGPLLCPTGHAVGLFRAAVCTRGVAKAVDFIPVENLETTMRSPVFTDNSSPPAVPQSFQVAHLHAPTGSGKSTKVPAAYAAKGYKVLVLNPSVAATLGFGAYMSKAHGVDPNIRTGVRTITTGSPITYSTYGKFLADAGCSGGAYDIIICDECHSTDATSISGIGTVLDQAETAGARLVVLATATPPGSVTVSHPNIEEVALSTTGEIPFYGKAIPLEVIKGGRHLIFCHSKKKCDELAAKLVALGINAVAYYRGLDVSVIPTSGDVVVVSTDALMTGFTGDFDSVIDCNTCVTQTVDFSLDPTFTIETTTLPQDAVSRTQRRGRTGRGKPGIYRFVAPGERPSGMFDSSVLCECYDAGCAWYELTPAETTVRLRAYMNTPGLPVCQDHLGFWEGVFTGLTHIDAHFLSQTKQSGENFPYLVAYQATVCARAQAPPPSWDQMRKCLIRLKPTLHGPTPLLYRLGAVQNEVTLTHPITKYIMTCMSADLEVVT

`C=C[C@@H]1C[C@]1(NC(=O)[C@@H]1C[C@@H](Oc2nccc3cc(OC)ccc23)CN1C(=O)[C@@H](NC(=O)OC(C)(C)C)C(C)(C)C)C(=O)NS(=O)(=O)c1nc2ccc(OCC)cc2s1` [Compound 1002] was tested. Which IC50 did it give?
Its IC50 is 100 to 1000 nM.

— patent US7309708B2, “Hepatitis C virus inhibitors” (priority 2003, dated 2007)
